Data set [1] concerns the target 3-beta-hydroxysteroid-Delta(8),Delta(7)-isomerase (Homo sapiens, UniProt Q15125). Conditions: Oligocortical organoid, dose lower […], dose upper 1750.0 nM, time 30.0 day.
A short description of the next data set: in vitro. Conditions: CD-1, mouse, pooled liver microsomes.
A further data set concerns MDR1. Description: in vitro. Conditions: dog, MDCK-MDR1.
Data set [2] is described as follows: Lipophilicity, logD of the compound at pH 7.4. Conditions: buffer.
In data set [3] the target is T1, 3-beta-hydroxysteroid-Delta(8),Delta(7)-isomerase (Mus musculus, UniProt P70245).
T1 sequence (P70245 whole entry): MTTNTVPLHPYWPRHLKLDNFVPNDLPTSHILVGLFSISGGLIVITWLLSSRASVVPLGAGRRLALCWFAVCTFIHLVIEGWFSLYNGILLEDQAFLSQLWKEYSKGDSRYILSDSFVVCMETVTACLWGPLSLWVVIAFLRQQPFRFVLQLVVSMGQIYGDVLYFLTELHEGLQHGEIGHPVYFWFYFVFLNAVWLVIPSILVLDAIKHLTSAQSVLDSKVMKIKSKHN
The experiment in a line: Inhibition of EBP in mouse Oligodendrocyte precursor cell assessed as zymostenol accumulation by GCMS analysis.

Amino acid sequences for entries named in this document (tags omitted). A change or cut given only in a name is not applied to a line headed by its entry.
UniProt Q15125: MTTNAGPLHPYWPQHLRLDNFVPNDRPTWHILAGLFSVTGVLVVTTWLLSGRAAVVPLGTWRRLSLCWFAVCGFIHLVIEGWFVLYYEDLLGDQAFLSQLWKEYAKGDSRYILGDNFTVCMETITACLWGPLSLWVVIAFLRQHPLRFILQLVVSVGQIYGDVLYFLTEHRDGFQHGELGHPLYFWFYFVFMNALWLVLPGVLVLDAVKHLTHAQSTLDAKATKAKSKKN

The nature of data set [4]: Dissociation constant, pKa of compound.
The test system of another data set is BCRP. Description: in vitro. Conditions: dog.

The source of these data is ChEMBL document CHEMBL5518221, “Discovery and Optimization of Selective Brain-Penetrant EBP Inhibitors that Enhance Oligodendrocyte Formation” (J Med Chem, 2024).

Activity calls are given as the source filed them. The calls are words filed in the database; no cut-off is given here.

For the compound `CCN1C(=O)N(c2ccc(C3CC3)cc2)C(=O)C12CCN(CC1CCOCC1)CC2`, the inhibition result in data set [1] was “Active”.

Consider `CN1c2ccc(C(F)(F)F)cc2C(=O)C12CCN(CC1CCOCC1)CC2`, for which the CLhep predicted at 1 h, 1 µM in “in vitro” was 47 mL/min/kg. The figures for the apical-to-basolateral permeability (Papp A→B) in the data set on MDR1 and in the data set with BCRP were 18.3 ×10⁻⁶ cm/s and 16.2 ×10⁻⁶ cm/s, respectively. The same compound displayed a logD in data set [2] of 3.3. For the same compound, the EC50 in data set [3] came to 5 nM. The pKa in data set [4] was 8.3.
